Laboratory results reported in US12161698B2, “Synthetic platelets” (CASE WESTERN RESERVE UNIVERSITY, priority 2011, dated 2024).

System: platelets
Assay: Aggregometry of VBP and CBP peptides (platelet activation)

Structure (SMILES): NCC(=O)N1CCC[C@H]1C(=O)N1C[C@H](O)C[C@H]1C(=O)NCC(=O)N1CCC[C@H]1C(=O)N1C[C@H](O)C[C@H]1C(=O)NCC(=O)N1CCC[C@H]1C(=O)N1C[C@H](O)C[C@H]1C(=O)NCC(=O)N1CCC[C@H]1C(=O)N1C[C@H](O)C[C@H]1C(=O)NCC(=O)N1CCC[C@H]1C(=O)N1C[C@H](O)C[C@H]1C(=O)NCC(=O)N1CCC[C@H]1C(=O)N1C[C@H](O)C[C@H]1C(=O)NCC(=O)N1CCC[C@H]1C(=O)N1C[C@H](O)C[C@H]1C(N)=O
- activation of platelets by aggregometry: inability of both VBP and CBP to activate platelets
